Patent US20200249194A9, “PROSTATE PROTEASE NANOSENSORS AND USES THEREOF” (Massachusetts Institute of Technology, priority 2017, published 2020)

Test system: serine hydrolase
Experiment: Activity-based probe (FP-TAMRA) labeling of fresh-frozen tissue
Design: species or system human

Substance: fluorophosphonate-TAMRA
- probe labeling, prostate cancer vs normal control samples (fresh-frozen human prostate cancer TMA): labeled prostate cancer samples more than normal control samples
- probe labeling of tissue sections (sections of 22Rv1 xenograft tumor): tumor cells were labeled
